Here are results for 1 molecule from the RepoRT retention time repository.

The series is described as follows: RP, Waters CORTECS UPLC C18, 100 × 2.1 mm, 1.6 µm, 40 °C, 0.4 mL/min, estimated dead time 0.55 min; A: water + 0.1% formic acid, pH 3; B: acetonitrile + 0.1% formic acid, pH 3; gradient (min/%B) 0/5 1.12/5 6.41/99.5 10.01/99.5. Conditions: stereoisomer not certain.

Turning to `CCOP(=S)(OCC)Oc1ncn(-c2ccccc2)n1` [Triazophos], the LC retention time is 5.19 min.
